Test results: patent US8962641B2, “Pyrimidine-substituted pyrrolidine derivatives, pharmaceutical compositions and uses thereof” (Boehringer Ingelheim International GmbH, priority 2013, dated 2015)

Protein sequences, listed by entry. Tags and fused reporters are not part of them. Residues count along the entry.
UniProt O00763, 129-2458 limits assumed: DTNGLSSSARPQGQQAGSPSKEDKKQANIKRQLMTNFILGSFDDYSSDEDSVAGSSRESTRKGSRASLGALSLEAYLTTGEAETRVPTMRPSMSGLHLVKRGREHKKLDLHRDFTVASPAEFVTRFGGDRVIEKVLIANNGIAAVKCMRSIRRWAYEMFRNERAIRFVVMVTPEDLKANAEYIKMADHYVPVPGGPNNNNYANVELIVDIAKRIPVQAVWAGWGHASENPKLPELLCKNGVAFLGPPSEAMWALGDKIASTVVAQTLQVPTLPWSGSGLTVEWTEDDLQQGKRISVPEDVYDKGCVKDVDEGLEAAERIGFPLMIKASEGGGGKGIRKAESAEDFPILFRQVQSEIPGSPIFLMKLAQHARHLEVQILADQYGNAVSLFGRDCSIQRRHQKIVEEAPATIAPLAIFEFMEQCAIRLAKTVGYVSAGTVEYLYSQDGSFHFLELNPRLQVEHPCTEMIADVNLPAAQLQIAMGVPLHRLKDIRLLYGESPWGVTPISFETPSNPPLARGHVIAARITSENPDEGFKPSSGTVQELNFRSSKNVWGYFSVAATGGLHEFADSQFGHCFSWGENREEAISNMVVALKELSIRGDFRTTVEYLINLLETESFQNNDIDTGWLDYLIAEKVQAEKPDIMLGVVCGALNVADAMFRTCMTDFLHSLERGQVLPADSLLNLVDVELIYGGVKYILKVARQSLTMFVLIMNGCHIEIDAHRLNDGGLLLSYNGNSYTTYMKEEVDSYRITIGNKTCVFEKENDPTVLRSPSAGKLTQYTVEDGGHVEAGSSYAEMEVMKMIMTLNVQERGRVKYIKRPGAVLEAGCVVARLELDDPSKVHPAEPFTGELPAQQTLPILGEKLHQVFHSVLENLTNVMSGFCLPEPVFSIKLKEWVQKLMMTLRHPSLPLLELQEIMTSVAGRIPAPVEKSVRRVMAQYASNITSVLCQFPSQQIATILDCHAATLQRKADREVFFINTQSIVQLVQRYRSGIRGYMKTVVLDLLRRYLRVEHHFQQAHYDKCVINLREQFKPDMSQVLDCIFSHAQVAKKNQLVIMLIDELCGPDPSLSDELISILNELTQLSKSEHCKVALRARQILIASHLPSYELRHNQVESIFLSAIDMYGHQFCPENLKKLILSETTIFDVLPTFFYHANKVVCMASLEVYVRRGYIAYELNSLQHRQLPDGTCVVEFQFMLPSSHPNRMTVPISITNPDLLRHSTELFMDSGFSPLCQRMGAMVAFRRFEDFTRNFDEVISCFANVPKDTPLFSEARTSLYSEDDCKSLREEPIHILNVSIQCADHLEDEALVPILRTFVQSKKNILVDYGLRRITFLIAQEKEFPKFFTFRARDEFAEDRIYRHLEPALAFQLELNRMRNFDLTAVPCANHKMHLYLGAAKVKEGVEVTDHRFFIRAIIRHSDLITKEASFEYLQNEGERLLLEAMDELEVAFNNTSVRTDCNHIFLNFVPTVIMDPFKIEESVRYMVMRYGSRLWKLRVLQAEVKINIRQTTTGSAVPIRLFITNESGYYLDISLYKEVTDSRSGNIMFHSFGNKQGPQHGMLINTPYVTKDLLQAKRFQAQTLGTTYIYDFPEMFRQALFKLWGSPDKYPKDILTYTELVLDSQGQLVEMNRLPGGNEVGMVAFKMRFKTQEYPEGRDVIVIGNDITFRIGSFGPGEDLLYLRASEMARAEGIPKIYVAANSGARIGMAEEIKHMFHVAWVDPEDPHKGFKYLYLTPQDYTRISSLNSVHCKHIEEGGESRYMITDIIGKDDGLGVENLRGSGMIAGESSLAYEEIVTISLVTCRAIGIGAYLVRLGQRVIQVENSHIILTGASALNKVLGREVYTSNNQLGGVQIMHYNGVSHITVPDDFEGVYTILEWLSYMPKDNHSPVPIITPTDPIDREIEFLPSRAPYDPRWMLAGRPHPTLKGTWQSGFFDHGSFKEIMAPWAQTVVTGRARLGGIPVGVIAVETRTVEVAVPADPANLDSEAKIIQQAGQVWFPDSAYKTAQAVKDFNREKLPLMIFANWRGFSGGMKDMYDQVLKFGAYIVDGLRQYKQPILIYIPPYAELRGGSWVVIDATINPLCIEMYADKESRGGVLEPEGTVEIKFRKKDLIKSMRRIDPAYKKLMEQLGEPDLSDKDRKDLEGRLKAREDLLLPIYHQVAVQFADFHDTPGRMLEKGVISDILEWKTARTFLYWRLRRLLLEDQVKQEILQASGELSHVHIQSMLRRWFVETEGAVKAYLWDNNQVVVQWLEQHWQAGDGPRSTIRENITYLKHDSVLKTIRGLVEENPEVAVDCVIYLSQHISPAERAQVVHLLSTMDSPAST

Molecular target: human ACC2 (Homo sapiens (Human), UniProt O00763)
Assay: ACC2 assay (spectrophotometric 384 well assay, NADH-linked kinetic method)
Details: hACC2 construct lacking 128 N-terminal amino acids; coupled lactate dehydrogenase/pyruvate kinase reaction, 340 nm, 25° C.

SMILES | IC50
COC1CCCN(c2ncc(Cl)c(N3CC[C@@H](Oc4ccc([C@H](C)NC(C)=O)cc4)C3)n2)C1 (stereo partly drawn) | 277 nM
CCc1cnc(N2CC[C@@H](Oc3ccc([C@H](C)NC(C)=O)cc3)C2)nc1 | 1030 nM
CCCOc1cnc(N2CC[C@@H](Oc3ccc([C@H](C)NC(C)=O)cc3)C2)nc1 | 1010 nM
CCC(=O)N[C@@H](C)c1ccc(O[C@@H]2CCN(c3ncnc(OCC4CC4)c3OC)C2)cc1 | 77 nM
CCc1cnc(N2CC[C@H](Oc3ccc([C@H](C)NC(C)=O)cc3)C2)nc1 | 2180 nM
CC(=O)N[C@@H](C)c1ccc(O[C@@H]2CCN(c3ncnc(N4CCCC4)c3C)C2)cc1 | 251 nM
